In paper PMC11619344 (Antimicrobial Agents and Chemotherapy, 2024):

Assays:
Assay in all cases: IC50, nitrocefin hydrolysis, crude extract
Type in all cases: biochemical
KPC-31 (KPC-3 D179Y) = molecular target: T1, KPC-31 (KPC-3 D179Y) (Klebsiella pneumoniae, UniProt Q9F663, D178Y/H272Y); details: ESBL phenotype, 10 min preincubation
T1 construct: made in house; host or cells: E. coli HB4 (porin-deficient), plasmid pUCP24

KPC-2 L169A = molecular target: T2, KPC-2 L169A (Klebsiella pneumoniae, UniProt Q9F663, L168A); details: carbapenemase phenotype, 10 min preincubation
T2 construct: made in house; host or cells: E. coli HB4 (porin-deficient), plasmid pUCP24

KPC-3 D179N = molecular target: T3, KPC-3 D179N (Klebsiella pneumoniae, UniProt Q9F663, D178N/H272Y); details: ESBL phenotype, 10 min preincubation
T3 construct: made in house; host or cells: E. coli HB4 (porin-deficient), plasmid pUCP24

KPC-35 (KPC-2 L169P) = molecular target: T4, KPC-35 (KPC-2 L169P) (Klebsiella pneumoniae, UniProt Q9F663, L168P); details: ESBL phenotype, 10 min preincubation
T4 construct: made in house; host or cells: E. coli HB4 (porin-deficient), plasmid pUCP24

KPC-2 = molecular target: T5, KPC-2 (Klebsiella pneumoniae, UniProt Q9F663)
T5 construct: made in house; host or cells: E. coli HB4 (porin-deficient), plasmid pUCP24

KPC-3 = molecular target: T6, KPC-3 (Klebsiella pneumoniae, UniProt Q9F663, H272Y); details: KPC-3, carbapenemase phenotype, 10 min preincubation
T6 construct: made in house; host or cells: E. coli HB4 (porin-deficient), plasmid pUCP24

KPC-2 L169T = molecular target: T7, KPC-2 L169T (Klebsiella pneumoniae, UniProt Q9F663, L168T); details: carbapenemase phenotype, 10 min preincubation
T7 construct: made in house; host or cells: E. coli HB4 (porin-deficient), plasmid pUCP24

Compound: O=C(NC1CCNCC1)[C@@H]1CC[C@@H]2CN1C(=O)N2OS(=O)(=O)O [REL, relebactam]
- IC50 (KPC-31 (KPC-3 D179Y)): 30 nM
- IC50 (KPC-2 L169A): 100 nM
- IC50 (KPC-3 D179N): 50 nM
- IC50 (KPC-35 (KPC-2 L169P)): 300 nM
- IC50 (KPC-2): 30 nM
- IC50 (KPC-3): 70 nM
- IC50 (KPC-2 L169T): 40 nM
